# Apparent affinities of Ab-14 variants for a coronavirus HR2 peptide

From the AlphaSeq antibody data of Li et al. 2023 (doi:10.1038/s41467-023-39022-2), copy in the FLAb collection.

Target: peptide PDVDLGDISGINAS, taken from heptad repeat 2 (HR2) of SARS-CoV-2 spike.

The variants keep the light chain, the linker and the frameworks of Ab-14 (scFv order VH, a 15-residue (Gly4Ser)3 linker, VL).
VH: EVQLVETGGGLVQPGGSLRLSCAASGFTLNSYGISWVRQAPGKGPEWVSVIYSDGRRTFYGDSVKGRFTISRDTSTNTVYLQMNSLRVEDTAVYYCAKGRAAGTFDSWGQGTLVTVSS
VL: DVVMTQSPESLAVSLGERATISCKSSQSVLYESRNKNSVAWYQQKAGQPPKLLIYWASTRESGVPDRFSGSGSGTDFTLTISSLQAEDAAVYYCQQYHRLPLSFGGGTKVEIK

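The starting antibody came from a phage panning campaign against this peptide. These sequences belong to a second round, designed from the earlier measurements on random variants of the parent. Their group label is 14H_En_Gibbs (En: ensemble of fine-tuned language models; Gibbs: Gibbs sampling). Affinity was read by AlphaSeq, a pooled yeast mating assay with surface-displayed partners. Mating (16 h, 30 °C) was followed by selection of diploids and sequencing of their barcodes. Read counts were normalised to the haploid input and turned into Kd by a linear fit to BCL2-family pairs of known affinity, for each replicate. Mating was done six times.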

Each variant is given by its three heavy chain CDRs, as the data file delimits them; those of the parent are GFTLNSYGIS, VIYSDGRRTFYGDSVK, GRAAGTFDS. Scale: log10 of Kd in nM, estimated from mating counts; low values are strong binders. "n.d." means that the variant was in the library but no mating with the target was seen in that replicate; the authors take this as a sign of poor binding, and no number exists. Nonspecific signal, from three strains lacking the peptide, appeared in 1% of pairings of all heavy chain designs, centred on 2.08 (5% of these signals below 0.84); values are not corrected for it. For each scFv, signals with the empty controls are counted beside the result, with their mean in brackets.

| # | CDR-H1 | CDR-H2 | CDR-H3 | log10 Kd (nM) by replicate | control signals |
|---|---|---|---|---|---|
| 1 | GFDLEKYGIS | VIYADGKRVAYQDAVK | GGTGGMFMV | n.d. / n.d. / n.d. / n.d. / n.d. / n.d. | 0 of 18 |
| 2 | GINLEEYGVS | VIYADGRRTAYTDSVK | GGNSVMTGV | n.d. / n.d. / n.d. / n.d. / n.d. / n.d. | 0 of 18 |
| 3 | GNDLQEYGIS | VIYADGQRVNAVSQVK | GKQAGTFNL | n.d. / n.d. / n.d. / n.d. / n.d. / n.d. | 0 of 18 |
| 4 | GFDVDEYGIS | VIYADGKRTSYQADVK | GSQVGNALV | n.d. / n.d. / n.d. / n.d. / n.d. / n.d. | 0 of 18 |
| 5 | GFDLNEYGVS | VIYADGVRSAYTSSVK | GVGNLDIML | n.d. / n.d. / n.d. / n.d. / n.d. / n.d. | 0 of 18 |
| 6 | GFDLNEYGIS | VIYADGVRTAYEEKVK | GVIINLIWL | 0.42 / 1.24 / n.d. / 0.38 / -0.40 / -0.19 | 0 of 18 |
| 7 | GYDLTEYGIS | VIYADGRRTAYSQSVK | GLNGGIIVV | n.d. / n.d. / n.d. / n.d. / n.d. / n.d. | 0 of 18 |
| 8 | GFELDEYGIS | VIYADGKRKAYDDAVK | GFTLGVKLI | -0.02 / -0.56 / -0.31 / -0.16 / -0.32 / -0.13 | 0 of 18 |
| 9 | GFDLDEYGVS | VIYADGRRKKYADSVK | GTHGGTILA | n.d. / n.d. / 2.51 / n.d. / n.d. / n.d. | 1 of 18 (2.04) |
| 10 | GFDINEYGVS | VIYADGMRTAYTDSVK | GEGKWINLI | n.d. / n.d. / n.d. / n.d. / n.d. / n.d. | 0 of 18 |
| 11 | GFQINEYGIS | VIYADGMRAGYADDVK | GSKDGNIIG | n.d. / n.d. / n.d. / n.d. / n.d. / n.d. | 0 of 18 |
| 12 | GYDIQDYGIS | VIYADGVRTVYHDSVK | GQLAGFFIT | n.d. / n.d. / n.d. / n.d. / n.d. / n.d. | 0 of 18 |
| 13 | GKKLDEYGIS | VIYADGQRAAYTEDVK | GLQNNVQIV | n.d. / n.d. / n.d. / n.d. / n.d. / n.d. | 0 of 18 |
| 14 | GFDLDEYGIS | VIYADGSRVAILESVK | GKIAGTLDT | -0.17 / -0.17 / 0.26 / -0.59 / -0.04 / -0.11 | 0 of 18 |
| 15 | GFVFDEYGIS | VIYADGIRQFYQDKVK | GEVTGMFDI | n.d. / n.d. / n.d. / n.d. / n.d. / n.d. | 0 of 18 |
| 16 | GKTLDEYGIS | VIYADGMRTSYIDSVK | GGIDGWRFI | n.d. / n.d. / n.d. / n.d. / n.d. / n.d. | 0 of 18 |
| 17 | GFQLDEYGIS | VIYADGIRQYYAQKFK | GYNSFDMTV | n.d. / n.d. / n.d. / n.d. / n.d. / n.d. | 0 of 18 |
| 18 | GDSLAEYGIS | VIYADGERSAYKNSFK | GWVAGYFDV | n.d. / n.d. / n.d. / n.d. / n.d. / n.d. | 0 of 18 |
| 19 | GFNLDEYGIS | VIYADGMRTAYGNNVK | GAVFGDLIS | n.d. / n.d. / n.d. / n.d. / n.d. / n.d. | 0 of 18 |
| 20 | GFGLDEYGIS | VIYADGMRAAYVTSVK | GYEAGTFFT | n.d. / n.d. / n.d. / n.d. / n.d. / n.d. | 0 of 18 |
| 21 | GMDLNEYGIS | VIYADGRRTAYINQVK | GSNSDTVSL | n.d. / n.d. / n.d. / n.d. / n.d. / n.d. | 0 of 18 |
| 22 | GESLDEYGIS | VIYADGMRTAYTDDVK | GLVAATLVD | n.d. / 1.69 / n.d. / n.d. / n.d. / n.d. | 0 of 18 |
| 23 | GFSLDEYGVS | VIYADGFRTAYTNSVK | GLMQQGRTV | n.d. / n.d. / n.d. / n.d. / n.d. / n.d. | 0 of 18 |
| 24 | GFDLDEYGIS | VIYADGMRVSYDQNVK | GRGGVSFIA | n.d. / n.d. / n.d. / n.d. / n.d. / n.d. | 0 of 18 |
| 25 | GYDIDEYGIS | VIYADGQRTSYQQSVK | GAGDITGLV | n.d. / n.d. / n.d. / n.d. / n.d. / n.d. | 0 of 18 |
| 26 | GFDLNNYGIS | VIYADGSRVEYENKFK | GDVAGTFDS | 0.23 / -0.01 / -0.04 / -0.03 / -0.17 / 0.00 | 1 of 18 (1.61) |
| 27 | GFNLDEYGVS | VIYADGKRTVYHDSVK | GKFLGVKLN | n.d. / n.d. / n.d. / n.d. / n.d. / n.d. | 0 of 18 |
| 28 | GDNLEEYGIS | VIYADGFRTHYAEKVK | GQQAGFFIK | n.d. / n.d. / n.d. / n.d. / n.d. / n.d. | 0 of 18 |
| 29 | GDVLDEYGIS | VIYADGRRTFYAQDVK | GGKAGSLSV | n.d. / n.d. / n.d. / 1.94 / n.d. / n.d. | 0 of 18 |
| 30 | GFGLDEYGIS | VIYADGARKAYQNYFK | GVQAGTFVN | n.d. / n.d. / n.d. / n.d. / n.d. / n.d. | 0 of 18 |
| 31 | GNNLDEYGIS | VIYADGQRSAYAQDVK | GKTGDNAFI | n.d. / n.d. / n.d. / n.d. / n.d. / n.d. | 0 of 18 |
| 32 | GFKIDEYGVS | VIYADGIRRAYADNVK | GYTDDAFDM | n.d. / n.d. / n.d. / n.d. / n.d. / n.d. | 0 of 18 |
| 33 | GFELNEYGIS | VIYADGMRASYRNDVK | GEISGDFML | n.d. / n.d. / n.d. / n.d. / n.d. / n.d. | 0 of 18 |
| 34 | GFNLDEYGIS | VIYADGYRRAYAQSVK | GMNSGTGFT | n.d. / n.d. / n.d. / n.d. / n.d. / n.d. | 0 of 18 |
| 35 | GKSIEEYGIS | VIYADGQRNAYAETVK | GMNGGVFSY | n.d. / n.d. / n.d. / n.d. / n.d. / n.d. | 0 of 18 |
| 36 | GESLEEYGIS | VIYADGRRSAYADNVK | GMSGNFGMF | n.d. / n.d. / n.d. / n.d. / n.d. / n.d. | 0 of 18 |
| 37 | GFDLEEYGIS | VIYADGVRTAYKNKVK | GWAAGGQFD | n.d. / n.d. / n.d. / n.d. / n.d. / n.d. | 0 of 18 |
| 38 | GFQLDEYGIS | VIYADGERTAYAQNFK | GNGLVLYEG | n.d. / n.d. / n.d. / n.d. / n.d. / n.d. | 0 of 18 |
| 39 | GFFLDEYGIS | VIYADGMRTAYKDKVK | GSDTLLGWF | n.d. / n.d. / n.d. / n.d. / n.d. / n.d. | 0 of 18 |
| 40 | GFNLNEYGIS | VIYADGMRTFYADKAK | GNAGIVVEV | n.d. / n.d. / n.d. / n.d. / n.d. / n.d. | 0 of 18 |
| 41 | GYDIQDYGIS | VIYADGVRVAYHDSVK | GQMAGFFIL | n.d. / n.d. / n.d. / n.d. / n.d. / n.d. | 0 of 18 |
| 42 | GFDIEEYGIS | VIYADGLRTMVQNSVK | GELGQKFKV | n.d. / n.d. / n.d. / n.d. / n.d. / n.d. | 0 of 18 |
| 43 | GFDLNEYGIS | VIYADGIREHYKDSVK | GVVFGNVLF | n.d. / n.d. / n.d. / n.d. / n.d. / n.d. | 0 of 18 |
| 44 | GFDIDEYGIS | VIYADGQRKAYTDNVK | GNSGGMTVA | n.d. / n.d. / n.d. / n.d. / n.d. / n.d. | 0 of 18 |
| 45 | GQLLDDYGIS | VIYADGLRKAYVDEVK | GYVAGTFDM | 0.03 / 0.09 / 0.00 / -0.07 / 1.77 / n.d. | 0 of 18 |
| 46 | GFSINEYGIS | VIYADGMRTAYSESVK | GTIDEDFNT | n.d. / n.d. / n.d. / n.d. / n.d. / n.d. | 0 of 18 |
| 47 | GFGLDEYGIS | VIYADGMRAQYATNVK | GYEAGTFST | n.d. / n.d. / 0.88 / n.d. / n.d. / n.d. | 0 of 18 |

The opening 6 entries, copied out:

| CDR-H1 | CDR-H2 | CDR-H3 | log10 Kd (nM) by replicate | control signals |
|---|---|---|---|---|
| GFDLEKYGIS | VIYADGKRVAYQDAVK | GGTGGMFMV | n.d. / n.d. / n.d. / n.d. / n.d. / n.d. | 0 of 18 |
| GINLEEYGVS | VIYADGRRTAYTDSVK | GGNSVMTGV | n.d. / n.d. / n.d. / n.d. / n.d. / n.d. | 0 of 18 |
| GNDLQEYGIS | VIYADGQRVNAVSQVK | GKQAGTFNL | n.d. / n.d. / n.d. / n.d. / n.d. / n.d. | 0 of 18 |
| GFDVDEYGIS | VIYADGKRTSYQADVK | GSQVGNALV | n.d. / n.d. / n.d. / n.d. / n.d. / n.d. | 0 of 18 |
| GFDLNEYGVS | VIYADGVRSAYTSSVK | GVGNLDIML | n.d. / n.d. / n.d. / n.d. / n.d. / n.d. | 0 of 18 |
| GFDLNEYGIS | VIYADGVRTAYEEKVK | GVIINLIWL | 0.42 / 1.24 / n.d. / 0.38 / -0.40 / -0.19 | 0 of 18 |

Values of this round are not directly comparable with the first-round values of the same sequences. In the paper, a design with two or fewer of six values counts as a poor binder. Of ten entries with the parent sequence, four were seen in most replicates (averages 0.34 to 2.37), three in one and three in none, so single entries are noisy.